Values of other authors as cited in patent EP0987023A1, “Transition metal complexes of non steroidal anti-inflammatory drugs” (PANACEA BIOTEC LIMITED, priority 1998, dated 2000).

Key:
[1] = collected values of NSAIDs; cited from earlier work
[2] = test system: Cyclooxygenase 2/Cyclooxygenase 1; details: cited from earlier work

## CC(C)Cc1ccc(C(C)C(=O)O)cc1 (centres unmarked) [Ibuprofen]
[1]
  Therapeutic Index: 68
[2]
  Cyclooxygenase 2/Cyclooxygenase 1 ratio: 15
